Data on one compound can be found in BindingDB's records for doi:10.1016/0166-4328(96)00087-3 (Smithkline Beecham Pharmaceuticals, 1996).

Chains of the proteins cited; added tags and fusions are not shown. Lines headed by an entry give the natural chain unless they say otherwise; changes in a name come on top.
UniProt P28335: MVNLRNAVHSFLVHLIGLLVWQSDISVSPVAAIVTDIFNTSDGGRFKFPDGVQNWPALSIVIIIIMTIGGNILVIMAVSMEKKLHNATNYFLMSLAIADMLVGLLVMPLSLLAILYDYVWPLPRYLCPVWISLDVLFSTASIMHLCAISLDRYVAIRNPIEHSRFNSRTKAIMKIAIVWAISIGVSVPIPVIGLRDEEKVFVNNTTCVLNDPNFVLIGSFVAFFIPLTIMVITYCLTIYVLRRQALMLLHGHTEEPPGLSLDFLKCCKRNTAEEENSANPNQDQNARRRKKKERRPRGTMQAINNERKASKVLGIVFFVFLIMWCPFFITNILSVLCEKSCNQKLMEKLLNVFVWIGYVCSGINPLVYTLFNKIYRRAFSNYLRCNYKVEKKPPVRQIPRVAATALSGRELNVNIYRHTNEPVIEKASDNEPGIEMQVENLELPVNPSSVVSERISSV

The target of this test is 5-hydroxytryptamine receptor 2C (Homo sapiens, UniProt P28335).

Broadly, the Ki is the dissociation constant of the complex between target and ligand, obtained from inhibition or displacement.

In the case of `Cc1cc(NC(=O)Nc2ccc3c(ccn3C)c2)sn1` [CAS_3277600], the Ki stood at 1 µM.
